GLP1R cytotox: cytotoxicity counter-screen for GLP-1 receptor inverse agonists. HEK293 cAMP-luciferase reporter cells, luminescence, 24 h. Potency, µM (top dose mostly 38.3 µM), usual class: inhibitors. 410,000 tested, 0.13% active. AID 624418;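 further: loss of luciferase light is scored as toxicity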
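Seeding density was 200 cells/uL; after overnight-length (12 h) culture, 23 nL compounds went on for 24 h at 37 °C. Readout used a luciferase detection reagent, luminescence taken after 12 min at room temperature.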
miR-21 reporter: raises the signal of a miR-21 reporter | HeLa miR-21 FLuc reporter, luciferase, 48 h | Potency, µM (highest dose often 38.3 µM) | 340,000 tested, under 10 active | AID 2288; active = well fitted rising curve with a large enough effect; inconclusive = small, poorly fitted or top-dose-only effect; inactive = no such curve, though single readings can be large or run the other way;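 note: miR-21 action dims this reporter so a rising signal means less miR-21 action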
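HeLa cells stably expressing CMV-driven firefly luciferase with a downstream miR-21 binding sequence, endogenously expressing miR-21, were treated with titrations (up to about 40uM final) for 48 hours at 37 degree Celsius. Luciferase luminescence was read after lysis.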
GLP-1R inv ag: GLP-1 receptor (human) inverse agonism; P43220; HEK293 GLP-1R CRE-luciferase, luminescence, 24 h; GLP-1R form is constitutively active; Potency, µM (doses to about 38.3 µM), most hits filed as inhibitors; 410,000 tested, 1.6% active; further: nearly all actives have a fitted effect of over 55% in size
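Using stably transfected HEK293 (constitutively active GLP-1R, cAMP-luciferase reporter), compounds were incubated 24 hr and luciferase measured by luminescence.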
PTHR1 agonist: agonists of human PTHR1 parathyroid hormone receptor. Q03431. Potency, µM (doses to about 115 µM), actives largely listed as activators. 410,000 tested, 0.075% active. HEK293 GP2 PTHR1 cells, GloSensor cAMP luminescence, 1 h; further: nearly all actives have a fitted effect of over 55% in size
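HEK-293-derived GP2 cells expressing PTHR1 and a GloSensor cAMP reporter, 3,000/well, plated overnight, given luciferin plus IBMX (each 0.5 mM as added) for 1 h at 37 °C, then compound for 1 h at 37 °C. Luminescence was read after 15 min at room temperature.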
GLP1R ag: agonists of human GLP-1 receptor; 380,000 tested, 0.007% active; Potency, µM (doses to about 45.6 µM), actives largely listed as activators; AID 624172; HEK293 GLP-1R CRE-luciferase, luminescence, 4-6 h; cells express a hypersensitive GLP-1R form; P43220
Pin1 inhibitor: inhibitors of human Pin1 | Potency, µM (top dose mostly 115 µM), actives largely listed as inhibitors | Pin1 FP peptide displacement, HiFluor488, 10 min | Q13526 | 390,000 tested, 0.009% active; active means well fitted inhibition curve with a large enough effect in the polarisation, with a control signal flat, not every such curve was filed as active; inconclusive means small, poorly fitted or top-dose-only effect, or effect the other way, or a change in a side signal; inactive means no such curve, though single readings can be large or run the other way; the % refers to the polarisation
Numbers stand for hits; n = inactive; u = inconclusive; x = no result. In the library only some 1.7% were active in any assay of this set; here they are far more common. Unless noted, the call rests on the fitted dose curve; in most records, active means well fitted curve in the direction sought with a large enough effect; inconclusive means small, poorly fitted or top-dose-only effect, or another doubt; inactive means no such curve, though single readings can be large; an effect the other way counts as inactive or inconclusive.

SMILES	GLP1R cytotox	miR-21 reporter	GLP-1R inv ag	PTHR1 agonist	GLP1R ag	Pin1 inhibitor
CCCCCCN(C(=O)CCCCCN1C(=O)NC(c2ccc(-c3ccccc3)cc2)C(C(=O)OCc2ccccc2)=C1C)C(C(=O)NCCCC)c1ccc(-c2ccccc2)cc1 (stereo not given)	x	n	x	x	x	x
C=C[C@@H]1c2ccccc2N(S(=O)(=O)c2ccc(C)cc2)[C@H](c2ccccc2)C1(C#N)C#N	n	x	3.5µM	n	n	n
C=C[C@@H]1c2cc(C)ccc2N(S(=O)(=O)c2ccc(C)cc2)[C@H](c2ccccc2)C1(C#N)C#N	n	x	n	n	n	n
CCN(CC)c1ccc2nc3ccc(N)cc3[n+](-c3ccccc3)c2c1	u	x	u	n	n	u
CCN(CC)c1ccc2nc3ccccc3[n+](CC)c2c1	11µM	u	u	n	n	n
C/C(=N\NC(=O)COc1cccc(C)c1)c1ccc2ccccc2c1O	n	n	1.1µM	n	n	n
CC(NC(=O)/C(=C/c1ccc(OC(F)F)cc1)c1ccccc1)c1ccccc1 (stereo not given)	n	n	4.5µM	n	n	n
CC(NC(=O)/C(C#N)=C/c1ccc(OCC(=O)O)cc1)c1ccccc1 (stereo not given)	n	n	n	n	n	n
CCOc1ccc(-n2nc(CO)c(C(=O)NCc3ccccn3)n2)cc1	n	n	n	n	x	n
O=c1c2ccccc2nc2sc(NCc3ccccc3)nn12	x	x	x	x	x	n
COc1cccc(NC(=O)CN(C)C(=O)C(Sc2ccccc2)c2ccccc2)c1 (stereo not given)	n	x	11µM	n	n	n
CC1(C)CC(=O)C2=C(C1)NC(Nc1nc3ccccc3o1)=NC2c1cccc(O)c1 (stereo not given)	x	x	x	x	x	n
COCC1CCCN(C(=O)c2ccc3oc(Cc4ccc(Cl)cc4)nc3c2)C1 (stereo not given)	n	n	10µM	n	n	n
COc1ccc(CN2CCN(Cc3ccc(C(F)(F)F)cc3)CC2)c(OC)c1	n	n	11µM	n	n	n
COc1ccc(CN2CCN(Cc3ccc(C)cc3)CC2)c(OC)c1	n	n	u	n	n	n
COc1ccc(N2CCN(S(=O)(=O)CCNC(=O)c3ccc(C(F)(F)F)cc3)CC2)cc1	n	n	n	n	x	n
CN(Cc1ccccc1)C(=O)CSc1nnc(-c2cccc(Cl)c2)o1	n	n	10µM	n	x	n
CC1(C)OC(=O)C2(Cc3ccccc3N3CCCC32)C(=O)O1 (stereo not given)	x	x	x	x	x	n
CC(C)C1C(=O)N(Cc2cn(Cc3ccco3)nn2)CCS(=O)(=O)N1Cc1ccc(-c2ccc(Cl)cc2)cc1 (stereo not given)	u	x	4µM	n	n	x
CC1C(=O)N(Cc2cn(Cc3ccco3)nn2)CCS(=O)(=O)N1Cc1ccc(-c2ccc(Cl)cc2)cc1 (stereo not given)	n	x	11µM	n	n	x
COCOCCn1cc(CN2CCS(=O)(=O)N(Cc3ccc(-c4ccc(Cl)c(Cl)c4)cc3)C(C)C2=O)nn1 (stereo not given)	n	x	11µM	n	n	x
COCOCCn1cc(CN2CCS(=O)(=O)N(Cc3ccc(-c4ccc(C)cc4)cc3)C(C)C2=O)nn1 (stereo not given)	n	x	u	n	n	x
CC(C)CCNC(=O)CN1C(=O)c2cccnc2Oc2ccccc21	n	n	n	n	x	n
CC(=O)N1CCN(Cc2nc(C(c3ccccc3)c3ccccc3)no2)CC1	n	n	n	n	n	n
c1ccc(C(c2ccccc2)c2noc(CN3CCN(C4CCCC4)CC3)n2)cc1	n	n	13µM	n	n	n
SMILES	GLP1R cytotox	miR-21 reporter	GLP-1R inv ag	PTHR1 agonist	GLP1R ag	Pin1 inhibitor
Cc1cccnc1CN1CCN(Cc2nc(C(c3ccccc3)c3ccccc3)no2)CC1	n	n	5µM	n	n	n
C[C@@H]1CN(C2CCN(Cc3nc(C(c4ccccc4)c4ccccc4)no3)CC2)C[C@H](C)O1	n	n	u	n	n	n
CCO[C@H]1OC(C(=O)N2CCN(Cc3ccccc3)CC2)=C[C@@H](C2CCCCC2)[C@@H]1CCCO	n	n	u	n	n	n
CCO[C@@H]1OC(C(=O)N2CCN(Cc3ccc4c(c3)OCO4)CC2)=C[C@H](C2CCCCC2)[C@H]1CCCO	n	n	11µM	n	n	n
CCCC1=Nc2cc(C(=O)NCCOC)ccc2Sc2ccccc21	u	n	2.2µM	n	x	n
CCCC1=Nc2cc(C(=O)NC3CCCCC3)ccc2Sc2ccc(C)cc21	u	n	0.79µM	u	x	n
CCOC(=O)N1CCC(NC(=O)c2ccc3c(c2)N=C(C)c2c(C)ccc(C)c2S3)CC1	u	n	u	n	n	n
CCCC1=Nc2cc(C(=O)NC3CCCC3)ccc2Sc2ccc(C)cc21	n	u	u	n	x	n
CCCC1=Nc2cc(C(=O)NCC(C)c3ccccc3)ccc2Sc2ccccc21 (stereo not given)	u	u	3.2µM	n	n	n
CCCC1=Nc2cc(C(=O)NCCCOC(C)C)ccc2Sc2ccccc21	n	n	n	n	n	n
CCCC1=Nc2cc(C(=O)NCCCOCC)ccc2Sc2ccccc21	n	n	n	n	n	n
CC1=Nc2cc(C(=O)NC3CCC(C)CC3)ccc2Sc2c(C)ccc(C)c21 (stereo not given)	u	n	0.79µM	n	n	n
Cc1nnc(N/N=C/c2cc([N+](=O)[O-])c(N3CCC(C)CC3)cc2N2CCC(C)CC2)n1N	u	n	n	28µM	n	u
Cc1nnc(N/N=C/c2ccc([N+](=O)[O-])cc2)n1N	n	n	n	n	n	n
COc1ccc(/C=C2\SC(=S)N(CCC(=O)Nc3ccc(O)cc3)C2=O)cc1	n	n	n	n	n	n
CCN(CC)CCOC(=O)c1ccc(NC(=O)CCCN2C(=O)S/C(=C/c3ccc(OC)cc3)C2=S)cc1	u	u	2.8µM	n	n	u
Cc1ccc(C(=O)Nc2ncc([N+](=O)[O-])s2)cc1	n	u	1.1µM	n	n	n
CC(=O)Nc1ncc([N+](=O)[O-])s1	x	x	x	x	n	x
CCOc1ccc(C(=O)Nc2ccc(C(=O)OCc3cc(=O)n4c(C)csc4n3)cc2)cc1	n	u	u	n	x	n
COc1ccc(/C=N/n2c(C)nc3ccccc3c2=O)cc1	n	n	n	n	n	n
COc1ccc(/C=N\n2nnc3ccccc32)cc1	n	n	5.6µM	n	n	n
COc1cccc(NC(=O)C(=O)NCCc2csc(-c3ccc(C(F)(F)F)cc3)n2)c1	n	n	n	n	x	n

High-throughput results (PubChem BioAssay)
